Experimental data published in patent publication US4908365A, “Benzhydryloxyethylpiperazine derivatives, processes for their preparation and pharmaceutical compositions in which they are present” (priority 1986, dated 1990).

How the values were obtained:
mice = assay: Toxicity test: 50% lethal dose (LD50) in mice; conditions: i.p.
[1] = test system: peritoneal pain caused by phenylbenzoquinone (PBQ); assay: Peripheral analgesic activity (phenylbenzoquinone peritoneal pain); assay type: in vivo, mice; conditions: mouse, s.c.; 30 min

SMILES: Cn1c(=O)c2c(ncn2CCN2CCN(CCOC(c3ccccc3)c3ccccc3)CC2)n(C)c1=O
- LD50 (mice): 240 mg/kg

SMILES: Cc1ccc(C(OCCN2CCN(CCn3cnc4c3c(=O)n(C)c(=O)n4C)CC2)c2ccccc2)cc1 (stereo not drawn)
- LD50 (mice): 178 mg/kg
- Peripheral analgesic activity ED50 [1]: 1.56 mg/kg
